# Experiment: Thin layer chromatography Rf (lipophilicity)
# Format: physicochemical
# Conditions: thin-layer silica, saturated KNO3(aq):H2O:MeCN (1:1:8); measure of lipophilicity
# Method: Thin layer chromatography (TLC) was carried out in polyester-backed silica-gel sheets without fluorescent indicator (Sigma-Aldrich Z122777-25EA) cut into ˜2×20 cm strips and eluted with a saturated KNO3(aq):H2O:MeCN (1:1:8, v/v/v) mixture in a capped 1 L chamber. Typically, 1 microliter of ˜1 mM samples were applied at ˜1 cm of the strip border and the solvent front was allowed to run ˜12 cm.
# Table indicating the redox properties (E1/2 of the Mn^IIIP/Mn^IIP redox couple) and antioxidant (log kcat for the dismutation of superoxide, O2′^−) properties of ortho and meta isomers of Mn N-substituted pyridylporphyrins. The E1/2 and log kcat were determined as described in Reboucas et al., Dalton Trans., 2008, 1233-42. Rf is the ratio of the drug path over solvent path on thin-layer silica with water/acetonitrile/KNO3 saturated water and is a measure of […]. […] In addition, as the length of the pyridyl substituent increases the SOD activity of the ortho compounds drops while there is no change in the SOD activity of the meta compounds.
# Rf is a measure of lipophilicity and is linearly related to log P where P is the partition coefficient between water and n-octanol. (Kos et al., Free Radic. Biol. Med., 47, 72-78, 2009, which is incorporated by reference herein).
substance,measurement,value
MnTnPrOH-3-PyP^5+,Rf,0.05
